These are literature values, as cited in publication PMC4554392 (International Journal of Nanomedicine, 2015).

The subject of this series is pathogen-induced macrophages isolated from human bone marrow. To be noted: in vitro and in vivo.

For human beta-defensin 3 [hBD3], the “Proinflammatory cytokines, such as TNF-α and IL-6” value is on record as “completely blocked”.
